Results on two substances are retold here after patent US20260266848A1, “COMPOSITIONS AND METHODS FOR DIAGNOSING AND TREATING DYSTONIA” (Duke University, priority 2023, published 2026).

This series relates to DYT1 patient plasma derived EVs. Put plainly: Plasma-derived EV proteomics (ExoQuick ULTRA, DIA LC/MS/MS), DYT1 vs Healthy Controls. The conditions noted are these: Hs. Plasma EVs (DYT1/WT); significance of genotype difference. Also on record: species or system human. Here is the method:
Data was obtained for extracellular vesicles using previously acquired samples. The ExoQuick® ULTRA EV Isolation System was used to fractionate and enrich EVs from plasma. Isolated plasma EV samples were then submitted to proteomic analysis by the Duke Proteomics and Metabolomics Core Facility (DPMCF). At the DPMCF, quantitative (LC/MS/MS) was performed on 500 ng of each sample, using an EvoSep One UPLC system coupled to a Thermo Orbitrap Astral high-resolution accurate mass tandem mass spectrometer (Thermo). Briefly, the sample was eluted directly from an Evotip which was subjected to a low organic wash and then subjected to an analytical separation using a 1.7 μm EvoSep 150 um ID×15 cm endurance (EveoSep) column running an SPD30 gradient from approximately 5 to 30% acetonitrile with 0.1% formic acid with a column temperature of 50 C. Data collection on the Orbitrap Astral mass spectrometer was performed in a data-independent acquisition (DIA) mode of acquisition with a r=240,000 (@m/z 200) full MS scan from m/z 380-980 with a target AGC value of 4e5 ions. Fixed DIA, windows of 4 m/z from m/z 380 to 980 DIA MS/MS scans were acquired in the Astral with a target AGC value of 5e4 and a max fill time of 6 ms. HCD collision energy setting of 27% was used for all MS2 scans.

On to ARL8B, for which the “-LogP” value is recorded as 1.86.

USP7: the “-LogP” value is reported as 1.411.
